Holding throughout (format): cell-based
Data set [1] concerns S. Typhimurium TA98. Description: Ames test, TA98. As to conditions: TA 98; 10.0 μg/plate.
The test system of data set [2] is S. Typhimurium TA97. Kind of data set: Ames test, TA97. As to conditions: TA 97; 10.0 μg/plate. Background: The Ames test detects mutagens through reverse mutation in bacteria.
The test system of data set [3] is S. Typhimurium TA102. Description: Ames test, TA102. The settings on record: TA 102; 10.0 μg/plate.
Data set [4] relates to S. Typhimurium TA100. Kind of data set: Ames test, TA100. The settings on record: TA 100; 10.0 μg/plate.
The test system of data set [5] is Syrian Hamster embryo (SHE) cell. Kind of data set: Cellular malignancy transformation test, colony forming efficiency (CE). As to conditions: SHE cells, 5.0 mg/flask, 24 h exposure.

2-amino fluorine: the “Back Mutation Colony” value is 1131.7 ± 233.32 colony/plate in data set [1], 1109.7 ± 58.8 colony/plate in data set [2], 1080.0 ± 89.4 colony/plate in data set [3] and 1095.7 ± 118.2 colony/plate in data set [4].

Turning to MNNG, in data set [5], the “Malignant transformed cell colony (CE)” value worked out at 4.4 ± 3.7 and the “Normal cell colony (CE)” value was found to be 2.6 ± 4.5.

Source of the values: patent US7691387B2, “Cinnamomi and poria composition, method to prepare same and uses thereof” (Jiangsu Kanion Pharmaceutical Co., Ltd, priority 2000, dated 2010).
